By pIC50 is commonly meant the negative decadic logarithm of the IC50, by convention in mol/L. A low value points to a high IC50.

Chains of the proteins cited; added tags and fusions are not shown. Lines headed by an entry give the natural chain unless they say otherwise; changes in a name come on top.
UniProt P23687: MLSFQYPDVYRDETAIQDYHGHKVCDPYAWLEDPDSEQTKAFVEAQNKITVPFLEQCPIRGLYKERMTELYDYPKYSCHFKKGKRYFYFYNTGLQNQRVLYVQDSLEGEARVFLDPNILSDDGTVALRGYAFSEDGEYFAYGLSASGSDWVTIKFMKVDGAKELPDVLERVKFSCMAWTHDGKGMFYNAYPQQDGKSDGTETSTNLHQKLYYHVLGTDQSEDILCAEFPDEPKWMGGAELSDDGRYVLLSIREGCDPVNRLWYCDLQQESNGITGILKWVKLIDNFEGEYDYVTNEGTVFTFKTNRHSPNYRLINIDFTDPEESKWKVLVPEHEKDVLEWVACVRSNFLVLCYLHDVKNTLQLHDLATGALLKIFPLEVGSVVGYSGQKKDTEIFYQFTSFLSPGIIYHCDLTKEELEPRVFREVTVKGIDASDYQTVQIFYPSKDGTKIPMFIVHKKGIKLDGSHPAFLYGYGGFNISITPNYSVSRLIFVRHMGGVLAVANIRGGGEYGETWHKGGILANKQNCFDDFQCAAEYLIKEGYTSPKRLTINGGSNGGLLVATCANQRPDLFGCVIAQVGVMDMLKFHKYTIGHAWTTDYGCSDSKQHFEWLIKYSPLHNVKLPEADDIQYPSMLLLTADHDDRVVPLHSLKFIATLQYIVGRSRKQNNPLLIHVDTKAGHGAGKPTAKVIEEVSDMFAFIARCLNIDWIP

The source of these data is patent US7173024B2, “Compounds having prolyl oligopeptidase inhibitory activity, methods for their preparation and their use” (Orion Corporation, priority 2001, dated 2007).

pIC50: −log10 of the molar value.

This experiment deals with T1, pig brain prolyl oligopeptidase (Sus scrofa, UniProt P23687).
T1 construct: The brains were homogenized with a glass-teflon homogenisator; from tissue; host or cells: pig brain (excluding cerebellum and most of the brain stem), 10000 g supernatant of the homogenate
The experiment is described as follows: Inhibition of prolyl oligopeptidase activity of pig brain (Suc-Gly-Pro-AMC, fluorometric). The format is biochemical. The settings on record: pig brain homogenate supernatant, 30° C., pH 7.0. The method, then:
The whole pig brains, excluding cerebellum and most of the brain stem, of three pigs were placed in liquid nitrogen within 30 min from killing and stored at −80° C. until homogenized. The brains were homogenized with a glass-teflon homogenisator in 3 volumes (w/v) of ice-cold 0.1 M sodium-potassium phosphate buffer (pH 7.0) and the homogenates were centrifuged for 20 min at 4° C. at 10000 g. The supernatants were collected, pooled and stored in small aliquots at −80° C. until used. The supernatant was thawn in ice just before activity assay and diluted in a ratio 1:2 with homogenisation buffer (=enzyme preparation). […]
Formation of 7-amido-4-methylcoumarin was determined fluorometrically with microplate fluorescence reader (excitation at 360 nm and emission at 460 nm). […]
The prolyl oligopeptidase activity was calculated with the following formula in the presence of various concentrations of novel compounds. To reveal the inhibitory potency of the novel compound, activities (% of control) were plotted against the log concentration of the compound, and the IC50 value was determined by non-linear regression utilizing GraphPad Prism software. […]

Turning to `O=C([C@@H]1CCCN1C(=O)CCCC(=O)N1CCC[C@H]1C(=O)N1CCCC1)N1CCCC1` [Example 4, Glutaric acid di-(L-prolyl-pyrrolidine)amide], the pIC50 was 7.32. To `N#C[C@@H]1CCCN1C(=O)[C@@H]1CCCN1C(=O)c1cccc(C(=O)N2CCC[C@H]2C(=O)N2CCCC2)c1` [Example 12, Isophthalic acid L-prolyl-2(S)-cyanopyrrolidine L-prolyl-pyrrolidine amide] belongs 8.82.
